{"source": "patent US20250353898A1", "about": "“SERPIN PEPTIDE DERIVATIVES AND METHODS OF USING THE SAME” (priority 2022, published 2025)", "system": "NFκB reporter cells or IMG microglial cells", "test": "Cytotoxicity assay (CellTiter-Glo Luminescent Cell Viability Assay)", "details": "up to 12.5 μg/ml, 24 hours, NFκB reporter cells and IMG microglial cells, FIG. 11", "data": [{"substance": "Ac- RRR[Dap]FT[Nal]LD (cyclic) [Peptide A3-5]", "values": [{"measurement": "cytotoxic effects", "result": "no cytotoxic effects"}]}, {"substance": "Ac- RR[Dap]FT[Nal]LD (cyclic) [Peptide A3-6]", "values": [{"measurement": "cytotoxic effects", "result": "no cytotoxic effects"}]}, {"substance": "Ac- RR[Dap]FT[Nal]L[dS]D (cyclic) [Peptide A3-9]", "values": [{"measurement": "cytotoxic effects", "result": "no cytotoxic effects"}]}]}
